Consider three compounds from patent publication US11883398B2, “Dipeptidylpeptidase 4 inhibition enhances lymphocyte trafficking, improving both naturally occurring tumor immunity and immunotherapy” (INSTITUT PASTEUR, priority 2015, dated 2024).

One experiment concerns mCXCL10. Conditions: CpG-A intravenously, sitagliptin vs control. On the procedure:
Plates were washed twice with 300 μL of PBS. Blocking was done with BSA 1% (proteinase free, Gibco), in PBS for 2h at room temperature. Plates were washed 3 times with 300 μL of 0.05% Tween-20 in PBS. Tumor and plasma samples were diluted in BSA 1% and incubated for 2h, at room temperature. To obtain a standard curve, and to control for the cross-reactivity of the detection antibody, dilutions of recombinant mCXCL10 (Peprotech) or DPP4-digested mCXCL10(3-77) were incubated in parallel. For detection of mCXCL10(1-77), biotinylated α-mCXCL10(1-77) (AbDSerotec, 0.5 μg/ml, clone AbD17185.1), Streptavidin-HRP (BD Biosciences) and 1-STEP ULTRA TMB (Thermo Scientific) were used.
Enzymatic reactions were stopped with HCL 1N and plates were read with 450 nm in a Lab-systems […] MS (Thermo) reader. […] Detection of mDPP4, mCCL22 and mCXCL12 was done with the DUOSET® ELISA kit (R&D). Detection of mVEGF, mCCL2 and mCCL3 was done with a multiplex kit (Invitrogen).

For experiment [1], the system named is DPP8/9 over-expressing cells. To be noted: Huan et al. 2015; cited from earlier work.

As to `N[C@@H](CC(=O)N1CCn2c(nnc2C(F)(F)F)C1)Cc1cc(F)c(F)cc1F` [sitagliptin], the “plasma mCXCL10(1-77) in Dpp4-/- mice” value with mCXCL10 was “did not have an additive effect”.
`N#C[C@@H]1CCCN1C(=O)CNC12CC3CC(CC(O)(C3)C1)C2` [vildagliptin]: in experiment [1], the “selectivity for DPP4 over DPP8 and 9” value was “highly-selective inhibitors of DPP4”.
Regarding `Cn1c(=O)cc(N2CCC[C@@H](N)C2)n(Cc2ccccc2C#N)c1=O` [alogliptin], the “selectivity for DPP4 over DPP8 and 9” value in experiment [1] is “highly-selective inhibitors of DPP4”.
